Laboratory results: the supplement of paper PMC8024199

Experiments:
Experiment in all cases: drug sensitivity score (DSS) (DSS score); higher = more sensitive (stronger growth inhibition); extreme values may be limits of the assay
[1] = system: Ba/F3 P210-BCR-ABL1 RUNX1-/- (mouse)
Method in brief: (§1)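 A drug sensitivity score summarised each dose-response curve, with luminescence from CellTiter-Glo scaled between vehicle and positive-control wells. Values are the mean of two replicates. The cells were mouse Ba/F3 clones that were CRISPR/Cas9-edited at a target exon or were edited controls, exposed on pre-printed 384-well plates to a 528-compound library at five concentrations spanning a 10,000-fold range. Plates held 10,000 cells per well in RPMI with 10% FBS for 72 h at 37 °C and 5% CO2.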

[2] = system: Ba/F3 P210-BCR-ABL1 RUNX1-/mut (mouse)
Method in brief: as §1

[3] = system: Ba/F3 P210-BCR-ABL1 RUNX1wt/wt control (mouse)
Method in brief: as §1

Measured: drug sensitivity score

NCc1ccc(OCCCc2sc(-c3ccc4c(c3)/C(=N/Nc3nc5ccccc5s3)CCC4)nc2C(=O)O)cc1 [WEHI-539]
0: all assays above
